Activity change, negative = inhibition data for 102 molecules are collected here from PubChem BioAssay AID2675 (National Center for Advancing Translational Sciences (NCATS), 2010).

The chains behind the UniProt entries cited, without tags or fusion partners. Where a name states a change or a piece, a line headed by the entry shows the natural chain unless it says otherwise.
UniProt Q9NR56: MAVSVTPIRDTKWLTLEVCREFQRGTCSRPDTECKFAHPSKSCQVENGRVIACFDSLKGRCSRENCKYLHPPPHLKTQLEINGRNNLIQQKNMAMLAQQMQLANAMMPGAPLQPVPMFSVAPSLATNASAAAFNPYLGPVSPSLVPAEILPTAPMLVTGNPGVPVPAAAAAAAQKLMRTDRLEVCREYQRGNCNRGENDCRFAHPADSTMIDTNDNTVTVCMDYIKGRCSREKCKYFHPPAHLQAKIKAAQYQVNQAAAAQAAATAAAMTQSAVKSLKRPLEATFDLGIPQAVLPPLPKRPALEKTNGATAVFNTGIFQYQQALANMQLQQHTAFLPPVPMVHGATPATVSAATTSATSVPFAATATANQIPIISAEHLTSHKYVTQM

This is a selection; strong and weak results do not stand in their true shares. Records with an inconclusive call do not appear. Active and inactive are the calls of the source. Calls follow the shape of the dose curve; as a rule, active = well fitted inhibition curve with a large enough effect in the signal ratio, with a control signal flat (not every such curve was filed as active); inconclusive = small, poorly fitted or top-dose-only effect, or effect the other way, or a change in a side signal; inactive = no such curve, though single readings can be large or run the other way; the % refers to the signal ratio.
% is scaled to controls: 0 for no effect and ±100 for the full control effect.

The target of this assay is Muscleblind-like protein 1 (Homo sapiens) (UniProt Q9NR56). Kind of assay: qHTS Assay for Inhibitors of MBNL1-poly(CUG) RNA binding. The settings on record: TR-FRET MBNL1-His/biotin-(CUG)12 binding, 665/545 ratio; at 57.5 µM (top of the series) unless noted. A general note: In qHTS, concentration-response curves come from the screen itself.
Take `CC(=O)NC(SC(=S)N(C)C)C(Cl)(Cl)Cl` (configuration not stated): the activity change, negative = inhibition was inactive: -6.83% [at 11.5 µM].
For `O=[As](O)(c1ccccc1)c1ccc(O)cc1`, the activity change, negative = inhibition was inactive: 0.703%.
The value for `C(Cc1nn[nH]n1)Cc1nn[nH]n1` was inactive: -27%; that for `O=C(OC1CN2CCC1CC2)c1cccc(Cl)c1` (configuration not stated) was inactive: -2.33%; that for `O=P(Nc1ccccn1)(c1ccc(Br)cc1)c1ccc(Br)cc1` was inactive: -8.2%.
`CN(C)C1(CNC(=O)c2ccc(Cl)c(S(N)(=O)=O)c2)CCCCC1`: the activity change, negative = inhibition is inactive: -4.97%.
Consider `C[C@H]1OP(=O)(Oc2ccccc2)[C@H](O)[C@H](O)[C@H]1N=[N+]=[N-]` (some centres not stated), for which the activity change, negative = inhibition was inactive: 0.393%.
As for `O=P(Nc1nccs1)(c1ccccc1)c1ccccc1`, the activity change, negative = inhibition is inactive: -1.51%.
The value for `c1nnnn1CCn1cnnn1` was inactive: -3.25%.
With `CC(=O)c1ccc(N2CC2c2ccncc2)cc1` (configuration not stated), the activity change, negative = inhibition was inactive: 8.27%.
On to `C[C@H]1OP(=O)(Oc2ccccc2)C[C@@H]2O[C@@H]21` (some centres not stated), for which the activity change, negative = inhibition is inactive: -3.28%.
The result for `C[C@@H]1C=CCP(=O)(Oc2ccccc2)O1` (some centres not stated) reads inactive: 2.46%.
In the case of `CC(=O)Nc1ccc([As](=O)(O)O)c(O)c1`, the activity change, negative = inhibition was inactive: -28.8%.
On to `O=P1(Nc2nc3ccc(Cl)cc3s2)COc2ccccc2O1` (configuration not stated), for which the activity change, negative = inhibition was inactive: -3.49%.
Turning to `CCOc1ccc(C2=NCC(CBr)S2)cc1` (configuration not stated), the activity change, negative = inhibition is inactive: -0.376%.
The result for `CC(C)(C)C(=O)NC(Sc1ccccc1)C(Cl)(Cl)Cl` (configuration not stated) reads inactive: 9.05%.
Turning to `COC(=O)c1cc2c(s1)N=C(c1ccccc1)N(C)P2(=O)N1CCOCC1` (configuration not stated), the activity change, negative = inhibition is inactive: 5.21%.
The value for `CC(=O)NC(SC(=S)N(CC(C)C)CC(C)C)C(Cl)(Cl)Cl` (configuration not stated) was inactive: 6.45%.
The value for `Cc1ccc(OP(=O)(Nc2ccccn2)Oc2ccc(C)cc2)cc1` was inactive: -5.78%; that for `O=C(OC1CN2CCC1CC2)c1ccccc1` (configuration not stated) was inactive: -10.9%.
Regarding `CCC(=O)N1C2C3N(C(=O)CC)C1C1N(C(=O)CC)C(C(N1C(=O)CC)N3C(=O)CC)N2C(=O)CC`, the activity change, negative = inhibition was inactive: -7.41%.
As to `Cc1ccccc1OP(=O)(Nc1ccccn1)Oc1ccccc1C`, the activity change, negative = inhibition was inactive: -5.07%.
The result for `CN(C)C(=O)Oc1noc2ccccc12` reads inactive: -0.886%; that for `CCNC(=S)/N=C(\N)N[N+](=O)[O-]`, inactive: -4.25%.
As for `O=C(NC1CCS(=O)(=O)C1)NP(=S)(Oc1ccccc1)Oc1ccccc1` (configuration not stated), the activity change, negative = inhibition is inactive: -3.43%.
In the case of `c1ccc(-c2nn[nH]n2)c(-c2nn[nH]n2)c1`, the activity change, negative = inhibition is inactive: 8.65%.
Take `Cc1ccc(NP(=O)(Oc2cccc(C)c2)Oc2cccc(C)c2)nc1`: the activity change, negative = inhibition is inactive: 3.13%.
Regarding `CCOC(=O)NC(Sc1ccccc1)C(Cl)(Cl)Cl` (configuration not stated), the activity change, negative = inhibition is inactive: -4.98%.
In the case of `CCN(N=Nc1nonc1N)c1nonc1N`, the activity change, negative = inhibition is inactive: 2.58%.
In the case of `CC(=O)Nc1ccc([As](=O)(O)O)cc1`, the activity change, negative = inhibition is inactive: -7.55%.
For `O=P(Nc1nc2ccc(Cl)cc2s1)(c1ccccc1)c1ccccc1`, the activity change, negative = inhibition was inactive: -0.36%.
With `Cc1cc(SC(NC(=O)c2ccc(F)cc2)C(Cl)(Cl)Cl)ncn1` (configuration not stated), the activity change, negative = inhibition is inactive: 0.445%.
Take `CCOP(=O)(Nc1ccccc1)OCC`: the activity change, negative = inhibition was inactive: -9.64%.
Consider `Cc1ccc(NP(=O)(Oc2ccccc2F)Oc2ccccc2F)nc1`, for which the activity change, negative = inhibition was inactive: 2.64%.
As to `CC(C)CC(=O)NC(Sc1ccc(Cl)cc1)C(Cl)(Cl)Cl` (configuration not stated), the activity change, negative = inhibition was inactive: 14.6%.
For the molecule `Oc1ccccc1CNc1ccccn1`, the activity change, negative = inhibition is inactive: -2.02%.
For `O=C(NC(Sc1ccncn1)C(Cl)(Cl)Cl)c1ccccc1` (configuration not stated), the activity change, negative = inhibition is inactive: 3.39%.
With `Cc1c2non([O-])c-2c(C)[n+](=O)[n+]1[O-]`, the activity change, negative = inhibition is inactive: 0.988%.
`Cc1ccc(N/C(=N/P(=O)(N2CCOCC2)N2CCOCC2)N2CCOCC2)cc1`: the activity change, negative = inhibition is inactive: -27.7%.
The value for `COc1ccccc1OP(=O)(Nc1ccc(C)cn1)Oc1ccccc1OC` was inactive: -5.22%.
For the molecule `Cc1ccc(OP(=O)(Nc2nccs2)Oc2ccc(C)cc2)cc1`, the activity change, negative = inhibition is inactive: -0.581%.
The value for `CN1CCCC(OC(=O)C(c2ccccc2)c2ccccc2)C1` (configuration not stated) was inactive: -27%.
With `Clc1ccc(Cl)c(NC2=NCC(CBr)S2)c1` (configuration not stated), the activity change, negative = inhibition is inactive: -5.42%.
For `Nc1ccc([As](=O)(O)c2ccc(N)cc2)cc1`, the activity change, negative = inhibition was inactive: -11.4%.
Turning to `CC(C)=N/N=C(\N)N[N+](=O)[O-]`, the activity change, negative = inhibition was inactive: -8.1%.
For the molecule `CN(C)C(=O)OCCc1n(C)cc[n+]1C`, the activity change, negative = inhibition is inactive: -3.37%.
For `CC1CCN(C(=O)Oc2c(Cl)cc(Cl)c3cccnc23)CC1`, the activity change, negative = inhibition is inactive: 11.9%.
The value for `CC(=O)N1C2C3N(C(C)=O)C1C1N(C(C)=O)C(C(N1C(C)=O)N3C(C)=O)N2C(C)=O` was inactive: -6.19%; that for `CC(C)(C)C(=O)NC(Sc1ccncn1)C(Cl)(Cl)Cl` (configuration not stated) was inactive: -9.79%; that for `O=C(O)CNc1ccc([As](=O)(O)O)cc1` was inactive: -3.56%.
The value for `O=C(Nc1cc([As](=O)(O)O)ccc1O)c1ccccc1` was inactive: -9.56%; that for `CCOC(=O)Nc1cccc([As](=O)(O)O)c1` was inactive: 7.53%; that for `O=[N+]([O-])c1ccc(Nc2ccc(Oc3ccc([N+](=O)[O-])cc3[N+](=O)[O-])cc2)c([N+](=O)[O-])c1` was inactive: 19.9%.
`O=P(Nc1ccccn1)(c1cccc2ccccc12)c1cccc2ccccc12`: the activity change, negative = inhibition was inactive: 10.8%.
Take `Cc1cc(SC(NC=O)C(Cl)(Cl)Cl)ncn1` (configuration not stated): the activity change, negative = inhibition was inactive: 1.81%.
For `CCOC(=O)Nc1ccc([As](=O)(O)O)c(O)c1`, the activity change, negative = inhibition is inactive: -11.1%.
For the molecule `CCCCOc1ccc(C(=O)NCC2(N3CCCCC3)CCCCC2)cc1OC`, the activity change, negative = inhibition is inactive: -7.72%.
Consider `CCOC(=O)c1ccc(NC(=O)C(C)(CCl)SC)cc1` (configuration not stated), for which the activity change, negative = inhibition was inactive: 8.45%.
On to `COP1(=S)c2c(C)nn(CCC#N)c2N=C(c2ccc(F)cc2)N1C` (configuration not stated), for which the activity change, negative = inhibition was inactive: -0.447%.
In the case of `O=C(COc1ccccc1)OC1CN2CCC1CC2` (configuration not stated), the activity change, negative = inhibition was inactive: -7.34%.
As to `COc1ccc(N/C(=N/P(=O)(N2CCOCC2)N2CCOCC2)N2CCOCC2)cc1`, the activity change, negative = inhibition is inactive: -4.36%.
For the molecule `O=C(OC1CN2CCC1CC2)C12CC3CC(CC(C3)C1)C2` (configuration not stated), the activity change, negative = inhibition was inactive: 12.6%.
Take `Cc1cc(=O)[nH]c(N[N+](=O)[O-])n1`: the activity change, negative = inhibition is inactive: -1.33%.
Consider `Cc1c2c(nc3ccccc13)SC(C(Cl)Cl)C2` (configuration not stated), for which the activity change, negative = inhibition is inactive: -13.3%.
`COc1ccc2nc(NP(=O)(c3ccccc3)c3ccccc3)sc2c1`: the activity change, negative = inhibition was inactive: -5.34%.
In the case of `COc1cc(I)ccc1[As](=O)(O)O`, the activity change, negative = inhibition was inactive: -4.23%.
With `CC(C)c1ccc(OP(=O)(Nc2ccccn2)Oc2ccccc2F)cc1` (configuration not stated), the activity change, negative = inhibition is inactive: 0.687%.
Turning to `ClCCSc1nnc(-c2cccnc2)o1`, the activity change, negative = inhibition is inactive: -18.8%.
Consider `CC(C)NC(=O)NP(=O)(Oc1ccccc1)Oc1ccccc1`, for which the activity change, negative = inhibition was inactive: -2.91%.
Regarding `CCN(CC)C(=S)SC(NC=O)C(Cl)(Cl)Cl` (configuration not stated), the activity change, negative = inhibition is inactive: -5.16%.
Regarding `O=[As](O)(c1ccc(O)cc1)c1ccccc1O`, the activity change, negative = inhibition was inactive: -4.28%.
On to `C[As](=O)(O)c1cccc(C(=O)O)c1`, for which the activity change, negative = inhibition is inactive: -9.96%.
The value for `Cc1ccc2nc3c(c(C)c2c1)CC(C(Cl)Cl)S3` (configuration not stated) was inactive: 22.2%; that for `Cc1ccc(OP(=O)(Nc2ccc([N+](=O)[O-])cn2)Oc2ccc(C)cc2)cc1` was inactive: 8.06%; that for `CCOP1(=S)c2c(C)nn(CCC#N)c2N=C(c2ccc(F)cc2)N1C` (configuration not stated) was inactive: -6.64%.
For the molecule `CCOP1(=S)c2c(C)nn(CCC#N)c2N=C(c2ccccc2F)N1C` (configuration not stated), the activity change, negative = inhibition was inactive: 13.2%.
The value for `O=P(Nc1nccs1)(Oc1ccccc1)Oc1ccccc1` was inactive: -18%.
In the case of `O=P(Nc1nccs1)(c1ccccc1)c1nc2ccccc2s1` (configuration not stated), the activity change, negative = inhibition was inactive: 1.79%.
Take `Nc1ccccc1[As](=O)(O)c1ccccc1`: the activity change, negative = inhibition was inactive: 4.13%.
The value for `O=C(O)COc1ccc([As](=O)(O)O)cc1[N+](=O)[O-]` was inactive: 4.02%; that for `CCCOP(=S)(Nc1nc(N)cc(=O)[nH]1)OCCC` was inactive: -11.1%; that for `COc1cc(C2NCCC3(OCCO3)C2(C)C)cc(OC)c1OC` (configuration not stated) was inactive: -2.88%.
The result for `CCOP(=O)(Nc1cccc2ccccc12)OCC` reads inactive: -3.13% [at 11.5 µM]; that for `O=[As](O)(O)c1cccnc1`, inactive: 11.9%; that for `COc1cc(C(=O)NCC2(N3CCOCC3)CCCCC2)cc(Cl)c1OC(C)C`, inactive: -3.27%.
The value for `CS(=O)(=O)c1ccc(Cl)c(NC(=O)COC(=O)C(O)(c2ccccc2)c2ccccc2)c1` was inactive: 0.799%; that for `Cc1cccc(OCC(=O)OC2CN3CCC2CC3)c1` (configuration not stated) was inactive: 2.55%; that for `O=[As](O)(c1ccccc1Br)c1ccccc1Br` was inactive: 1.44%.
For `CC(C)/C=N\N=C(\N)N[N+](=O)[O-]`, the activity change, negative = inhibition was inactive: -5.44%.
Turning to `CCOP(=O)(Nc1ccc(C)cn1)OCC`, the activity change, negative = inhibition was inactive: -6.22%.
Consider `CCC1=CC2Cc3nc4ccc(Cl)cc4c(N)c3C(C1)C2` (configuration not stated), for which the activity change, negative = inhibition was inactive: -0.198%.
The value for `CCOP(=O)(NC(=NC(C)c1ccccc1)NC(C)c1ccccc1)OCC` (configuration not stated) was inactive: -8.11%.
The value for `Clc1n[nH]nc1-c1nn[nH][15n]1` was inactive: 2.02%; that for `CC(C)(C)C(=O)NC(Sc1ncccn1)C(Cl)(Cl)Cl` (configuration not stated) was inactive: -11.5%; that for `O=P1(Nc2ncccn2)COc2ccccc2OC1` was inactive: -18.9%.
As to `Cc1ccc(OCC(=O)OC2CN3CCC2CC3)cc1` (configuration not stated), the activity change, negative = inhibition is inactive: -14.9%.
With `O=[As](O)(c1cccs1)c1cccs1`, the activity change, negative = inhibition was inactive: 1.94%.
As to `Nc1cccc([As](=O)(O)c2ccccc2)c1`, the activity change, negative = inhibition was inactive: -6.34%.
Regarding `Cc1nn(-c2ccccc2)c2c1P(=O)(N1CCOCC1)N(C)C(c1ccccc1)=N2` (configuration not stated), the activity change, negative = inhibition was inactive: 6.67%.
For `CC1CCC(C(C)C)C(OP(=O)(Nc2ccccn2)c2ccccc2)C1` (configuration not stated), the activity change, negative = inhibition was inactive: -4.22%.
Take `Cc1ccc(C(=O)OC2CN3CCC2CC3)cc1` (configuration not stated): the activity change, negative = inhibition is inactive: 3.94%.
For the molecule `CN(C)C1(CNC(=O)c2ccc(S(C)(=O)=O)cc2)CCCCC1`, the activity change, negative = inhibition was inactive: -1.96%.
